Our source for the Ki and IC50 values is patent US20020198219A1, “2-pyridinamine compositions and related methods” (priority 2000, published 2002).

Structures are written as SMILES.

The target of one assay is CAMKII. The following applies: read-out: Potency, CAMKII; from the literature; cited from earlier work.
In assay [1] the test system is differentiated P19 neurons. Briefly: Differentiated P19 excitotoxicity assay (glutamate/glycine-induced death, Alamar Blue). The format is cell-based, murine. The following applies: read-out: IC50 for Neuroprotection [lower-upper 95% C.I.]; 3 mM glutamate + 1 mM glycine; mean of three separate curves.

`O=S(=O)(NCCNC/C=C/c1ccc(Br)cc1)c1cccc2cnccc12`: at CAMKII, the Ki was 30 µM. In assay [1], the half-inhibitory concentration (IC50) was above 10 µM.
